Test results reported in patent publication US6420532B1, “Method of obtaining compositions comprising Y2 specific compounds” (Synaptic Pharmaceutical Corporation, priority 1994, dated 2002).

Amino acid sequences for entries named in this document (tags omitted). A change or cut given only in a name is not applied to a line headed by its entry. Residues count along the entry.
UniProt P49146, whole entry: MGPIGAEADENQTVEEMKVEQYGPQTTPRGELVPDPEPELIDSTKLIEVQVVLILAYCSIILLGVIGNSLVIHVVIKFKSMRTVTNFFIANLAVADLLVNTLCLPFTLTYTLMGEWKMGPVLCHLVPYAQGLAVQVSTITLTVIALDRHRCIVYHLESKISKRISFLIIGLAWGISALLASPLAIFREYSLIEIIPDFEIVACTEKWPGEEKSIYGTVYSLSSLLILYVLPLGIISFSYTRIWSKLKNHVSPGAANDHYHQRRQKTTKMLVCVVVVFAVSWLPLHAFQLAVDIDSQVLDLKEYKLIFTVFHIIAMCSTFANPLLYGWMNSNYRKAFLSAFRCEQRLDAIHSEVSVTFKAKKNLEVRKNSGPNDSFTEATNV
UniProt P25929, whole entry: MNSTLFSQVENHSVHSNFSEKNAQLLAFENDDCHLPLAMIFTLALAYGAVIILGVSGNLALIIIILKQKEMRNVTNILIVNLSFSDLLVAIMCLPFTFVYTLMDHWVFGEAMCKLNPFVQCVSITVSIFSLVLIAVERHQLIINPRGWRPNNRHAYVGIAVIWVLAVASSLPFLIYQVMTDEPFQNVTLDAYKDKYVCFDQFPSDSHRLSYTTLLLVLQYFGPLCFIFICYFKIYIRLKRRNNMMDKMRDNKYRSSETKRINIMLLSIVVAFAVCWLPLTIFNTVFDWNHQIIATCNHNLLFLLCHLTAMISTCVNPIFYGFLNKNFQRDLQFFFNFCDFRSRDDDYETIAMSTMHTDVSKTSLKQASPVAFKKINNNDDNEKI
UniProt Q9ERC0, 1-381: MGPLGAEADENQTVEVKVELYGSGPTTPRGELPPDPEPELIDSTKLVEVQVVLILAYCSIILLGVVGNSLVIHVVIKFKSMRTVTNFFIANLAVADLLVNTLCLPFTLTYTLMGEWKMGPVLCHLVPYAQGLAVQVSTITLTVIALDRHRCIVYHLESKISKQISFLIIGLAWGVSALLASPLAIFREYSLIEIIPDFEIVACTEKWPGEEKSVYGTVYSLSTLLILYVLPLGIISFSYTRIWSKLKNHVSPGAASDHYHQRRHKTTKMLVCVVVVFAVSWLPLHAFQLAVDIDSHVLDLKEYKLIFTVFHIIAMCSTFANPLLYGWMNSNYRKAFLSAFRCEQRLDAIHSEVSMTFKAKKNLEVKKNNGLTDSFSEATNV
UniProt P50391: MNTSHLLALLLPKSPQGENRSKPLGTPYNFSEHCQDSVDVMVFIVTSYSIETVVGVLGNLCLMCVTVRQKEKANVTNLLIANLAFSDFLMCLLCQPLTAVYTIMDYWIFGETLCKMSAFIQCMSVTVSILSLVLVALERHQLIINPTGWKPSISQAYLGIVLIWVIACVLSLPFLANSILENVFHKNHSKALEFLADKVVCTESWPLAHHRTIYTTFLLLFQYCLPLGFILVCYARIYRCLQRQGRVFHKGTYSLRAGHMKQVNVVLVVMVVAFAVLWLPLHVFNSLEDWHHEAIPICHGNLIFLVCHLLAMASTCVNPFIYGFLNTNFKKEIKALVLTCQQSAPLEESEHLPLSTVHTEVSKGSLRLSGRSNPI

Columns and labels:
human Y2 receptor [1] = target: T1, human Y2 receptor (Homo sapiens, UniProt P49146); test: 125I-PYY binding to membranes from stably transfected NIH-3T3 cells (N-hY2-5); design: expressed in transfected cells; conditions: read-out: apparent Kd
Excerpt: Two positive clones were identified and isolated for further study (293 clone #10 and NIH-3T3 clone #5). […] The data serve to emphasize that the receptor/G protein interactions for a given receptor clone can vary depending upon the resident G proteins in the host cell line (93). Additional factors such as receptor density and receptor reserve can also play a role (92).

human Y2 receptor [2] = target: T1, human Y2 receptor; test: 125I-PYY binding to membranes from 293 stable clone (293-hY2-10); design: expressed in transfected cells; conditions: read-out: apparent Kd
human Y1 receptors [3] = target: T2, human Y1 receptors (Homo sapiens, UniProt P25929); test: Association time course and saturation binding of 125I-PYY, COS-7 membranes expressing human Y1
T2 construct: expressed in transfected cells; host or cells: COS-7 (transient, DEAE-dextran)

rat Y2a receptor = rat Y2a receptor (Rattus norvegicus, UniProt Q9ERC0); conditions: read-out: apparent Kd, one-site model
human Y1 receptors [4] = target: T2, human Y1 receptors; test: Competitive displacement of 125I-PYY, membranes of COS-7 cells transiently expressing human Y1; type: binding; conditions: read-out: Y1 (Ki); Table 4; unit inferred, nM
[5] = target: T3, CG-13 receptors (human Y2 receptor) (Homo sapiens, UniProt P49146); test: Competitive displacement of 125I-PYY, membranes of COS-7 cells transiently expressing CG-13 (human Y2); type: binding; conditions: read-out: Y2 (Ki); Table 4; unit inferred, nM
T3 construct: expressed in transfected cells; host or cells: COS-7 (transient, DEAE-dextran)

human Y4 receptors = target: T4, human Y4 receptors (Homo sapiens, UniProt P50391); test: Competitive displacement of 125I-PYY, membranes of COS-7 cells transiently expressing human Y4; type: binding; conditions: read-out: Y4 (Ki); Table 4; unit inferred, nM
T4 construct: expressed in transfected cells; host or cells: COS-7 (transient, DEAE-dextran)

Work on ^125I-PYY yielded a Kd (human Y2 receptor [1]) of 8 ± 2 pM, a Kd (human Y2 receptor [2]) of 3 pM and a Kd (human Y1 receptors [3]) of 0.062 nM. The Kd (rat Y2a receptor) was 0.26 nM.

With melanostatin [NPY, frog (melanostatin)] the Ki (human Y1 receptors [4]) was 0.07 nM, the Ki [5] was 0.87 nM and the Ki (human Y4 receptors) was 1.2 nM.
